Values of other authors as cited in PMC3682882 (BMC Pharmacology & Toxicology, 2013).

Details: cited from earlier work

Which “metabolism and metabolic interactions” value does the source give for CN(C)C(=N)N=C(N)N [Metformin, reference compound] here?
Its value is “neither metabolized nor inhibits the metabolism of other drugs”.
